In paper PMC5958115, “A novel small molecule chaperone of rod opsin and its potential therapy for retinal degeneration” (Nature Communications, 2018):

Molecular target: mouse P23H-opsin mutant (Mus musculus, UniProt P15409, P23H)
Experiment: β-Gal fragment complementation assay: rescue of P23H opsin transport from ER to plasma membrane, U2OS(PLC-EA/P23H-PK) cells
Type: cell-based

activity in rescuing P23H-opsin transport (in words) | Structure (SMILES)
some activity that remained | O=C1OCC(c2ccc(F)s2)=C1c1cccs1
lower efficacies | O=C1OCC(c2ccc(Cl)s2)=C1c1cccc(Cl)c1
relatively higher efficacies | O=C1OCC(c2ccc(Cl)s2)=C1c1ccccc1[N+](=O)[O-]
some activity that remained | O=C1OCC(c2cccs2)=C1c1cccs1
relatively higher efficacies | COc1ccccc1C1=C(c2ccc(Cl)s2)COC1=O
